Source: PubChem BioAssay AID504842 (National Center for Advancing Translational Sciences (NCATS), 2011)
What follows is the remainder of the data, with few or none of the hits. The source made the active and inactive calls. The call rests on the fitted dose curve; in most records, active means well fitted inhibition curve with a large enough effect; inconclusive means small, poorly fitted or top-dose-only effect; inactive means flat fitted curve, though single readings scatter.

Test system: Chaperonin Mm-Cpn (Methanococcus maripaludis)
Experiment: Inhibitors of TCP-1 ring complex (TRiC) of Methanococcus maripaludis (MmCpn): qHTS; further: nearly all actives have a fitted effect of over 80% in size
Conditions: purified Mm-Cpn ATPase, ADP Transcreener TR-FRET; at 76.9 µM (top of the series)
From the text: The eukaryotic chaperonin TRiC (for TCP-1 ring complex) is an essential and conserved chaperone required for the folding and activation of 10-15% of the proteins encoded by the human genome. […] The TRiC complex consist of two stacked 7-9 membered rings, each containing a central cavity. Substrates are folded within the cavity in an ATP-dependent manner. TRiC is a complex of eight different, essential proteins. As each of the genes encoding the eight subunits is essential for cell viability and no protocol has been developed to over-express this enzyme to high levels. […] This assay applied the time resolved fluorescence resonance energy transfer (TR-FRET) principle. […]
Purified Mm-CPN was supplied by the laboratory of Dr. Judith Frydman. […] Plates were read on the PerkinElmer EnVision plate reader using Excitation = 320 nm and Emission = […], 665 nm. Protocol- 1.Dispense 1.5ul per well of working [Mm-CPN] = 50nM (or 75 ng / well) 2.Spin plate at 1000 rpm for 30 seconds 3.23nl of compound transferred per well 4.Incubate at 37degC for 10 minutes 5.Dispense 1.5ul per well of working [ATP] = 20uM 6.Incubate at 37degC for 30 minutes 7.Dispense 3ul per well of Anti-ADP Cryptate / ADP-d2 mix (prepared as instructed by Cisbio) 8.Incubate at ambient for 30 minutes 9.Read using EnVision
On the % scale 0 is the no-effect control and ±100 the full control effect.

Row | Compound | activity, negative = inhibition
1 | CC(CCC(C)C(C)(C)C)[C@@H]1CC[C@H]2C3C[C@H](OS(O)(=S)=S)[C@H]4C[C@H](OS(O)(=S)=S)[C@@H](OS(O)(=S)=S)C[C@]4(C)[C@H]3CC[C@]12C (stereo partly specified) (tested in a mixture with another compound) | inactive: -14.3%
